PubChem BioAssay AID485313 (National Center for Advancing Translational Sciences (NCATS), 2010)
The list shows a part of the results, in another mix than the full data. Some structures show a salt or complex split into parts, the way the source records it. Calls of active or inactive are those of the source. Calls come from the whole dose curve; as a rule, active = well fitted activation curve with a large enough effect; inconclusive = small, poorly fitted or top-dose-only effect; inactive = no such curve, though single readings can be large or run the other way.

assay: qHTS Assay for NPC1 Promoter Activators; settings: Huh7 NPC1 promoter luciferase reporter, 24 h; at 9.22 µM (top of the series);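 note: reporter is driven by a mutant NPC1 promoter; % of control where 0% means no effect; nearly all actives have a fitted effect of over 60% in size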

Structure (SMILES)	activation
CCOC(=O)N1CCC(Nc2ccc(F)cc2)CC1	inactive: 0.509%
COc1ccc(NC2CCN(CCc3ccccc3)CC2)c(OC)c1	inactive: -0.582%
CCCCOc1ccc(C(=O)NCC2(N3CCOCC3)CCCCC2)cc1	inactive: 12.1%
O=C(NCC1(N2CCCCC2)CCCCC1)c1ccc(F)cc1	inactive: -1.98%
CCOc1ccc(C)cc1CN(CCCl)CCCl	inactive: -4.44%
Cc1ccc(OCC(C)C)c(CN(CCCl)CCCl)c1	inactive: -0.402%
CCOC(=O)N1CCC(Nc2cccc(C)c2)CC1	inactive: -2.21%
COc1cc(C(=O)NCC2(N(C)C)CCCCC2)ccc1OC(F)F	inactive: 0.768%
CSc1ccccc1C(=O)NCC1(N2CCCCC2)CCCCC1	inactive: 0.624%
O=C(NCC1(N2CCCCC2)CCCCC1)c1cccs1	inactive: 1.4%
O=C(NCC1(N2CCCCC2)CCCCC1)c1ccc(=O)[nH]c1	inactive: -4.53%
COc1ccc(C(=O)NCC2(N3CCCCC3)CCCCC2)c(OC)c1OC	inactive: -2.8%
CC(C)(C)OC(=O)N1CCC(N(C(=O)c2ccccc2)c2ccc(F)cc2)CC1	inactive: -1.95%
COc1ccc(C(=O)NCC2(N3CCCCC3)CCCCC2)cc1	inactive: 8.58%
CCOC(=O)N1CCC(Nc2ccc(OC)cc2)CC1	inactive: -2.83%
COc1ccc(Cl)cc1C(=O)NCC1(N2CCOCC2)CCCCC1	inactive: -0.252%
N#CC1(Nc2ccccc2)CCN(Cc2ccccc2)CC1	inactive: -3.19%
O=C(NCC1(N2CCCCC2)CCCCC1)c1ccc(Cl)s1	inactive: -5.46%
O=C(OC1CN2CCC1CC2)C1c2ccccc2Oc2ccccc21 (stereo not given)	inactive: 0.063%
O=C(NCC1(N2CCOCC2)CCCCC1)c1cc2ccccc2o1	inactive: 4.83%
Cc1cc(C)cc(N(C(=O)c2ccccc2)C2CCN(C(=O)OC(C)(C)C)CC2)c1	inactive: -3.21%
O=C(NCC1(N2CCCCC2)CCCCC1)c1ccc(Cl)nc1	inactive: -3.57%
COc1cc(OC)c(C(=O)NCC2(N(C)C)CCCCC2)cc1OC	inactive: 0.132%
CN(C)c1cccc(C(=O)NCC2(N3CCCCC3)CCCCC2)c1	inactive: -1.9%

Structure (SMILES)	activation
O=[N+]([O-])c1cc([N+](=O)[O-])c(OC2CCCCC2O)c([N+](=O)[O-])c1 (stereo not given)	inactive: -4.35%
COc1ccc(CN(CCCl)CCCl)cc1Cl	inactive: -1.13%
CCCOc1ccc(C(=O)NCC2(N(C)C)CCCCC2)cc1OC	inactive: -2.18%
O=C(NCC1(N2CCCCC2)CCCCC1)c1cncc(Br)c1	inactive: -2.32%
COc1ccc2c(c1O)-c1c(O)c(OC)cc3c1[C@H](C2)[N+](C)(C)CC3.O=[N+]([O-])c1cc([N+](=O)[O-])c([O-])c([N+](=O)[O-])c1[O-]	inactive: -5.69%
O=C(OC1CN2CCC1CC2)c1ccc([N+](=O)[O-])cc1 (stereo not given)	inactive: 9.74%
CSc1ccc(C(=O)NCC2(N3CCOCC3)CCCCC2)cc1	inactive: 0.781%
O=C(NCC1(N2CCCCC2)CCCCC1)c1cccc([N+](=O)[O-])c1	inactive: -3.67%
N#CC1(Nc2ccccc2)CCN(CCc2ccccc2)CC1	inactive: -5.03%
CCN1CCC(Nc2ccc(Cl)cc2)CC1	inactive: -2.48%
O=C(NCC1(N2CCCCC2)CCCCC1)c1ccc(OC(F)F)cc1	inactive: 3.53%
COc1ccc(NC2CCN(C(=O)OC(C)(C)C)CC2)cc1	inactive: -0.0621%
CC(C)c1ccc(C(=O)NCC2(N3CCOCC3)CCCCC2)cc1	inactive: 6.02%
CN1CCN(CCOC(=O)C(O)(c2ccccc2)c2ccccc2)CC1	inactive: -2.11%
O=C(NCC1(N2CCOCC2)CCCCC1)c1cc(=O)[nH]c2ccccc12	inactive: -4.38%
COc1cc(C(=O)NCC2(N3CCCCC3)CCCCC2)ccc1OC(F)F	inactive: 0.393%
O=C(NCC1(N2CCCCC2)CCCCC1)c1cccc(C(F)(F)F)c1	inactive: 2.13%
O=[N+]([O-])c1cc([N+](=O)[O-])c(NCC2CCS(=O)(=O)C2)c([N+](=O)[O-])c1 (stereo not given)	inactive: -19.7%
CCOC(=O)C(CC)C1=NC(C)(C)Cc2ccccc21.O=[N+]([O-])c1cc([N+](=O)[O-])c(O)c([N+](=O)[O-])c1 (stereo not given)	inactive: -2.2%
CC(C)(C)OC(=O)N1CCC(N(C(=O)c2ccccc2)c2ccc(Cl)cc2)CC1	inactive: -0.0851%
N#Cc1ccc(C(=O)NCC2(N3CCCCC3)CCCCC2)cc1	inactive: -4.13%
CCCN1CCC(Nc2cc(OC)cc(OC)c2)CC1	inactive: -4.69%
c1ccc(CN2CCC(Nc3ccccc3)CC2)cc1	inactive: -0.975%
CN(C)C1(CNC(=O)c2cccc(C#N)c2)CCCCC1	inactive: -3.06%

Structure (SMILES)	activation
COc1ccc(C(=O)NCC2(N3CCOCC3)CCCCC2)cc1OC	inactive: 1.98%
O=C(NCC1(N2CCOCC2)CCCCC1)c1cc(Br)ccc1Cl	inactive: -2.16%
O=C(O)c1cccc(Nc2c([N+](=O)[O-])cc([N+](=O)[O-])cc2[N+](=O)[O-])c1	inactive: -1.06%
CCc1cc(C(=O)NCC2(N3CCCCC3)CCCCC2)sc1C	inactive: -8.8%
O=C(OC1CN2CCC1CC2)C1c2ccccc2C=Cc2ccccc21 (stereo not given)	inactive: -3.83%
N/C(=N\O)c1c(N)no[n+]1[O-]	inactive: 2.24%
CCOC(=O)N1CCC(Nc2ccc(C)cc2)CC1	inactive: -3.88%
CCCOc1ccc(C(=O)NCC2(N(C)C)CCCCC2)cc1	inactive: -1.95%
O=C(O)C1(Nc2ccccc2)CCN(Cc2ccccc2)CC1	inactive: 0.405%
CC(C)(C)OC(=O)N1CCC(Nc2ccccc2)CC1	inactive: 1.62%
CN1CCC(Nc2ccc(F)c(Cl)c2)CC1	inactive: -0.815%
CCOc1ncccc1C(=O)NCC1(N2CCOCC2)CCCCC1	inactive: 0.571%
CCCOc1ccc(C)cc1CN(CCCl)CCCl	inactive: -2.68%
CN1CCC(Nc2ccc(Cl)cc2)CC1	inactive: 1.34%
CCC(CO)(C(=O)OC1CN2CCC1CC2)c1ccccc1 (stereo not given)	inactive: -2.27%
COc1cccc(C(=O)N(c2cc(C)cc(C)c2)C2CCN(C(=O)OC(C)(C)C)CC2)c1	inactive: -3.54%
COc1cc(OC)cc(C(=O)NCC2(N3CCOCC3)CCCCC2)c1	inactive: 3.1%
Fc1ccccc1NC1CCN(Cc2ccccc2)CC1	inactive: -2.53%
Cc1ccc(C(=O)NCC2(N3CCCCC3)CCCCC2)o1	inactive: 7.62%
CN(C)c1ccc(C(=O)NCC2(N3CCCCC3)CCCCC2)cc1	inactive: 1.9%
O=C(NCC1(N2CCCCC2)CCCCC1)c1ccco1	inactive: 0.641%
CCN1CCC(Nc2cccc(F)c2)CC1	inactive: 1.38%
